Laboratory results reported in patent US8133482B2, “Activatable photodynamic therapy agents” (The Trustees of the University of Pennsylvania, priority 2003, dated 2012).

Target: T1, caspase-3 (Homo sapiens, UniProt P42574)
T1 sequence (P42574 29-175 limits assumed): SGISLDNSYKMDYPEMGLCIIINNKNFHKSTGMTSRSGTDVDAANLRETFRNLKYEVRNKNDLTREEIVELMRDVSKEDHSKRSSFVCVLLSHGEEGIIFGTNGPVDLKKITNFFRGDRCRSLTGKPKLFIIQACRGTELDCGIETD
T1 sequence (P42574 176-277 limits assumed): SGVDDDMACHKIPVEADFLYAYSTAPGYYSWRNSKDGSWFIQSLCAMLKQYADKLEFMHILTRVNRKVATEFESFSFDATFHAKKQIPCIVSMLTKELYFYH
Test: caspase-3 cleavage of PPC tested by HPLC
Assay type: biochemical
Conditions: PPC + caspase-3 + inhibitor

Substance: Ac-DEVD-CHO
- block of caspase-3 cleavage of PPC by inhibitor: completely blocked the enzyme activity
